# Data from ChEMBL document CHEMBL3627642 (Bioorg Med Chem, 2015).
# Target: Prothrombin (Homo sapiens, UniProt P00734)
# Assay: Inhibition of human thrombin using tosyl-glycyl-prolyl-arginine-4-nitranilide acetate as substrate preincubated for 10 mins by spectrophotometer analysis
structure (smiles),measurement,value
CC1CNc2c(cccc2S(=O)(=O)N[C@@H](CCCNC(=N)N)C(=O)N2CC[C@@H](C)C[C@@H]2C(=O)O)C1 (stereo partly specified) [ARGATROBAN],IC50,3.88 nM
